The list is not random: actives were taken first. Their share in the collection is about 2.3%.
ASAP1 inh – inhibitors of human ASAP1 ArfGAP activity, primary screen, biochemical, fluorescence polarization; Arf-GAP with SH3 domain, ANK repeat and PH domain-containing protein 1 (Homo sapiens), …; ASAP1-stimulated ARF1 GTP hydrolysis, GDP FP detection; inhibition, % at 16.5 µM; hit rate 0.19% among 360,000; AID 624377, 2012; in the data active = inhibition above about 25%;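 also: 0% = vehicle with enzyme and substrate and 100% = no enzyme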
MC4R antagonist – MC4R antagonists of cAMP signaling, primary screen, cell-based, TR-FRET, antagonist arm of biased-ligand search. MC4R-expressing cells, MTII-stimulated cAMP, LANCE TR-FRET. inhibition, % at 6.5 µM. hit rate 0.48% among 360,000;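 active = inhibition above its plate's cutoff, the mean of tested wells on that plate plus 3 SD, cut at about 29% in these data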;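 also: 0% = Melanotan II alone and 100% = Melanotan II plus saturating MCL0020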
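Material: human MC4R-expressing U2OS cells. Probe or stimulus: Melanotan II challenge. Dosing: 6.5 µM single dose. Times: 30-min compound, 1-h challenge, 1-h detection, room temperature. Technique: TR-FRET with Eu-cAMP and labeled anti-cAMP, 671 nm. Replication: singlicate.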
ARFGAP1 inh – inhibitors of rat ARFGAP1 GAP activity, primary screen, biochemical, fluorescence polarization, GDP tracer; Arfgap1-stimulated ARF1 GTP hydrolysis, GDP FP detection; inhibition, % at 16.5 µM; hit rate 0.26% among 360,000; AID 651572, 2012;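 active = inhibition above a per-plate limit, mean inhibition of low control wells plus 3 SD, cut at about 25% in these data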;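 also: 0% = DMSO wells with enzyme and 100% = wells lacking Arfgap1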
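Material – truncated rat Arfgap1 GAP domain · Buffer or medium – HEPES-based buffer, pH 7.5 · Reagent – human ARF1(Δ1-17)-GTP substrate · Dosing – 16.5 µM single point, 1.26% DMSO · Schedule – GTP hydrolysis reaction 2 h at 25 °C · Technique – GDP detection by fluorescence polarization · Benchmarks – No-Arfgap1 wells (100%) versus DMSO full-reaction wells (0%) · Repeats – single replicate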
MC4R barr agon – MC4R agonists recruiting beta-arrestin, primary screen, cell-based, luminescence, agonist arm of biased-ligand search. Melanocortin receptor 4 (Homo sapiens), P32245. activation, % at 8.9 µM. U2OS MC4R beta-arrestin complementation; percent of melanotan II response, DMSO zero. hit rate 0.98% among 360,000. AID 540308, 2011;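 active = activation above a per-plate cutoff, the mean activation of sample wells on that plate plus 3 SD, cut at about 8% in these data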
CendR NRP1 mod – modulators of CendR peptide binding to NRP-1, primary screen, biochemical, fluorescence polarization, uHTS; inhibition, % at 25 µM; hit rate 0.85% among 360,000; FAM-RPARPAR peptide binding to NRP-1;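 active = inhibition or corrected inhibition above about 18%, plus a signal ratio from 0.5 to 1.5, limit read from the data, passing the limit was not always enough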
UUG fidelity – modulators of yeast start codon fidelity, primary screen, whole organism, S. cerevisiae, single point, plate reader; activity score, % at 18.7 µM; actives 0.13% (n = 350,000); S. cerevisiae UUG-firefly luciferase reporter, luminescence/redox ratio;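 active = replicate mean at a twofold rise or more, about +100% in these data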;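 also: firefly luciferase made from a UUG start codon reports start codon fidelity; reporter light over untreated wells divided by growth signal over untreated wells; some hits fall short of that in this replicate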
* hit, by the source's call; x = no result.

Amino acid sequences for entries named in this document (tags omitted).
Melanocortin receptor 4 (Homo sapiens), P32245, UniProt P32245, whole entry, looked up: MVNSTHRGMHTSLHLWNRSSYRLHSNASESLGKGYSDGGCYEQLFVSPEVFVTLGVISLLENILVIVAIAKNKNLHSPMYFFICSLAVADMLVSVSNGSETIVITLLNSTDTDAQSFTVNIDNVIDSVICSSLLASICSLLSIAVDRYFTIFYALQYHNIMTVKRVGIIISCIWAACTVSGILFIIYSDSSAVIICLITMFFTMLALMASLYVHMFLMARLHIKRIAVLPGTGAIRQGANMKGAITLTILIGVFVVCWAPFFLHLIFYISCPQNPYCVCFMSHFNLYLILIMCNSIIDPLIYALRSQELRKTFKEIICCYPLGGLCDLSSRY

1: CC(C)NC(=O)N(C)C[C@H]1Oc2ccc(NC(=O)Nc3ccccc3)cc2C(=O)N([C@H](C)CO)C[C@@H]1C
2: Cc1noc(C)c1S(=O)(=O)N(C)C[C@H]1OCCCC[C@H](C)Oc2ccc(NS(=O)(=O)c3cn(C)cn3)cc2C(=O)N([C@H](C)CO)C[C@@H]1C
3: C[C@@H]1CN([C@H](C)CO)C(=O)c2cc(NC(=O)Nc3ccc(C(F)(F)F)cc3)ccc2O[C@H]1CN(C)S(=O)(=O)c1cccs1
4: C[C@H](CO)N1C[C@H](C)[C@@H](CN(C)S(C)(=O)=O)Oc2ccc(NC(=O)NC3CCCCC3)cc2C1=O
5: Cc1ccc(S(=O)(=O)N(C)C[C@H]2Oc3ccc(NC(=O)c4ccncc4)cc3CC(=O)N([C@@H](C)CO)C[C@@H]2C)cc1

Compound | 1 | 2 | 3 | 4 | 5
ASAP1 inh | 4.7 | x | 26.0* | 7.0 | x
MC4R antagonist | 4.5 | x | 0.7 | 3.1 | x
ARFGAP1 inh | 2.7 | x | 10.6 | 15.4 | x
MC4R barr agon | -0.8 | x | 0.8 | -1.3 | x
CendR NRP1 mod | 34.5* | x | -4.5 | 31.1* | x
UUG fidelity | -24.6 | 17.4 | -9.6 | -11.2 | -9.3

6: COc1ccc(NC(=O)N[C@H]2C=C[C@@H](CC(=O)NCc3ccccn3)O[C@@H]2CO)cc1
7: COc1ccccc1CN1[C@H](CO)[C@@H]2c3ccccc3N(C(=O)C3CC3)C[C@@H]21
8: CC(C)NC(=O)N(C)C[C@H]1Oc2ccc(NC(=O)Nc3ccc4c(c3)OCO4)cc2C(=O)N([C@H](C)CO)C[C@@H]1C
9: Cc1noc(C)c1NC(=O)Nc1ccc2c(c1)C(=O)N([C@H](C)CO)C[C@H](C)[C@@H](CN(C)C(=O)NC(C)C)O2
10: O=S(=O)(N[C@H]1CC[C@H](CCn2cc(-c3cccnc3)nn2)O[C@@H]1CO)c1ccccc1

Compound | 6 | 7 | 8 | 9 | 10
ASAP1 inh | x | x | -5.7 | -12.0 | x
MC4R antagonist | x | x | 3.4 | 3.6 | x
ARFGAP1 inh | x | x | 8.6 | -5.8 | x
MC4R barr agon | x | x | -0.7 | -0.1 | x
CendR NRP1 mod | x | x | 28.6* | 27.2* | x
UUG fidelity | -16.1 | -3.0 | -1.2 | -12.6 | -2.7

11: COc1ccc(C=NNc2nc3ccccc3s2)cc1
12: CC1CCC(C(C)C)C(OCC(O)CNC(C)(C)C)C1 (centres undefined)
13: CC1CCC(C(C)C)C(OCC(O)CNC(C)c2ccccc2)C1 (centres undefined)
14: CCCc1nc2ccc(Cl)cn2c1Cc1ccsc1
15: COCC(=O)Nc1ccc2c(c1)[C@@H]1C[C@@H](CC(=O)NCc3ccc(OC)cc3)O[C@@H](CO)[C@@H]1O2

Compound | 11 | 12 | 13 | 14 | 15
ASAP1 inh | -19.1 | -4.5 | -9.1 | -0.6 | x
MC4R antagonist | -8.2 | -2.1 | 8.7 | x | x
ARFGAP1 inh | -6.0 | -5.7 | -3.5 | -12.7 | x
MC4R barr agon | 9.1* | -2.0 | 8.3* | x | x
CendR NRP1 mod | 16.4 | 12.0 | 3.9 | 27.9* | x
UUG fidelity | -34.4 | x | x | 0.5 | -1.9

16: O=C1OCC/C1=C\c1ccccc1
17: CC1(C)CCC/C(=C\c2ccccc2)C1=O
18: Cc1cc(C(=O)Nc2cccc3c2O[C@@H](CN(C)S(C)(=O)=O)[C@@H](C)CN([C@H](C)CO)C3=O)n(C)n1
19: Cc1cccc(C(=O)NNC2=C(C(=O)C(F)(F)F)CCC2)c1O
20: O=C(NNC1=C(C(=O)C(F)(F)F)CCC1)c1cccc(O)c1

Compound | 16 | 17 | 18 | 19 | 20
ASAP1 inh | 5.2 | -12.9 | x | -9.6 | -16.7
MC4R antagonist | -0.3 | 6.7 | x | 3.4 | -1.3
ARFGAP1 inh | 3.5 | -1.7 | x | -5.6 | 14.8
MC4R barr agon | -1.4 | -1.7 | x | -3.6 | -1.1
CendR NRP1 mod | 7.1 | 19.7* | x | 58.2* | -10.0
UUG fidelity | -12.4 | -17.3 | 17.0 | x | -25.3

21: CO[C@H]1CN(C)C(=O)c2cc(NS(C)(=O)=O)ccc2OC[C@H](C)N(CC2CCCCC2)C[C@H]1C
22: C[C@@H]1CN([C@@H](C)CO)C(=O)Cc2cc(NC(=O)Cc3ccccc3)ccc2O[C@@H]1CN(C)C(=O)Nc1ccccc1
23: Cc1ccc(SCCC(=O)Nc2ccccc2C(=O)NC2CCCCC2)cc1
24: C[C@H]1CN([C@@H](C)CO)C(=O)Cc2cc(NS(C)(=O)=O)ccc2O[C@H]1CN(C)S(=O)(=O)c1ccc(Cl)cc1

Compound | 21 | 22 | 23 | 24
ASAP1 inh | x | x | -2.6 | x
MC4R antagonist | x | x | -1.0 | x
ARFGAP1 inh | x | x | -3.0 | x
MC4R barr agon | x | x | 9.4* | x
CendR NRP1 mod | x | x | 10.9 | x
UUG fidelity | 33.8 | -3.5 | x | -10.3

Given in markdown: 3 of the compounds above.
| no. | Compound | ASAP1 inh | MC4R antagonist | ARFGAP1 inh | MC4R barr agon | CendR NRP1 mod | UUG fidelity |
| --- | --- | --- | --- | --- | --- | --- | --- |
| 16 | O=C1OCC/C1=C\c1ccccc1 | 5.2 | -0.3 | 3.5 | -1.4 | 7.1 | -12.4 |
| 11 | COc1ccc(C=NNc2nc3ccccc3s2)cc1 | -19.1 | -8.2 | -6.0 | 9.1* | 16.4 | -34.4 |
| 21 | CO[C@H]1CN(C)C(=O)c2cc(NS(C)(=O)=O)ccc2OC[C@H](C)N(CC2CCCCC2)C[C@H]1C | x | x | x | x | x | 33.8 |

High-throughput results as filed in PubChem BioAssay.
